Experimental data from PMC6345973, “IRE1α-XBP1s pathway promotes prostate cancer by activating c-MYC signaling” (Nature Communications, 2019).

Sequences of proteins named here, by UniProt entry; tags and fusion partners are left off. Residues count along the entry.
UniProt O75460, 19-977: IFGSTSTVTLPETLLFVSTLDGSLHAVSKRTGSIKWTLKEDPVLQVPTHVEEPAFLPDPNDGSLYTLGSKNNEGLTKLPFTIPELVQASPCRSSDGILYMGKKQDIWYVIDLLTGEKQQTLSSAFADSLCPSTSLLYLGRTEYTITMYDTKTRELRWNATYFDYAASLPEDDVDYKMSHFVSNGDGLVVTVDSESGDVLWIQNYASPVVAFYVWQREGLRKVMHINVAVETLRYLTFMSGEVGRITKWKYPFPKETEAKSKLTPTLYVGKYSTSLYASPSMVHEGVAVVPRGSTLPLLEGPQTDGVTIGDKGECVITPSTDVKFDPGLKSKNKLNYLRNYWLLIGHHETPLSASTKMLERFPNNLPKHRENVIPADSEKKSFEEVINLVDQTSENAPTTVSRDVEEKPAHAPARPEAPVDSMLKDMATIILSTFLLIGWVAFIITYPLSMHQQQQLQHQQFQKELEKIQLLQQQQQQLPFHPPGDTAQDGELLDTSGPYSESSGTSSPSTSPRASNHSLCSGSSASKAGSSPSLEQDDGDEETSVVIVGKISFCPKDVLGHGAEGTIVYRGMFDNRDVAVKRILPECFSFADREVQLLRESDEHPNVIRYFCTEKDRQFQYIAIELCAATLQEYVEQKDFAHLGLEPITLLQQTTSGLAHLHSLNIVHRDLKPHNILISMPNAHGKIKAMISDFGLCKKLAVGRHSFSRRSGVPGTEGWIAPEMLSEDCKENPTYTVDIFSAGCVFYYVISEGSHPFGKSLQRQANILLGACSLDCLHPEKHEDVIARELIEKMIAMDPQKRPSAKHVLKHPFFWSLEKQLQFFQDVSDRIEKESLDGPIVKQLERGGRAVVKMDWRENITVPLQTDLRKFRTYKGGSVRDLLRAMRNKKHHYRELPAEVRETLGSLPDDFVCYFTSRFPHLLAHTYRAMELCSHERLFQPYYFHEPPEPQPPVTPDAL

Biological target: T1, IRE1α (Homo sapiens, UniProt O75460)
T1 construct: gene ERN1
Experiment: in vitro RNase activity assay of human IRE1α (Supplementary Fig. 2a)
Type: biochemical

## COc1cc2c(C)c(CC(=O)N3CCOCC3)c(=O)oc2c(C=O)c1O [MKC8866]
  IC50: 290 nM
